The record followed here is doi:10.1101/434357v1 (biorxiv, 2018).

In the assay the target is T1, α2-WT GlyR (Homo sapiens, UniProt P23416).
T1 construct: gene GLRA2; full-length homomeric pentamer; pGEMHE in Xenopus laevis oocytes, pCIS2 in HEK293 cells
T1 sequence (P23416 28-452): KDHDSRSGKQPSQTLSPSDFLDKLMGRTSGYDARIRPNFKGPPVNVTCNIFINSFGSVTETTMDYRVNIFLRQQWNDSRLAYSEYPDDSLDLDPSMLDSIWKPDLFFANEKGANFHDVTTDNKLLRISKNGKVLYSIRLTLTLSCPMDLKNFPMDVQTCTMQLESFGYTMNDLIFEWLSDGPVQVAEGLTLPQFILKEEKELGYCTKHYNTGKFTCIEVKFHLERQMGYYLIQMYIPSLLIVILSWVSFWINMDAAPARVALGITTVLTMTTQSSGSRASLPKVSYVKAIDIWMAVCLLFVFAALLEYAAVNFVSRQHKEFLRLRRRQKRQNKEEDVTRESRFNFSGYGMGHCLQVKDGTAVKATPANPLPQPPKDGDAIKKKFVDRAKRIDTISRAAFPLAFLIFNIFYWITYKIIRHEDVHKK
Nature of the assay: two-electrode voltage clamp, Xenopus oocytes, current dose-response. Format: cell-based.

`NCC(=O)O` [Glycine] came in with a concentration giving a half-maximal response (EC50) of 230 µM.
